Reference: US20110319451A1, “5-Ht6 Receptor and Modulators Thereof for the Treatment of Insulin-Related Disorders” (priority 2008, published 2011)

Protein sequences, listed by entry. Tags and fused reporters are not part of them.
UniProt Q9R1C8, whole entry: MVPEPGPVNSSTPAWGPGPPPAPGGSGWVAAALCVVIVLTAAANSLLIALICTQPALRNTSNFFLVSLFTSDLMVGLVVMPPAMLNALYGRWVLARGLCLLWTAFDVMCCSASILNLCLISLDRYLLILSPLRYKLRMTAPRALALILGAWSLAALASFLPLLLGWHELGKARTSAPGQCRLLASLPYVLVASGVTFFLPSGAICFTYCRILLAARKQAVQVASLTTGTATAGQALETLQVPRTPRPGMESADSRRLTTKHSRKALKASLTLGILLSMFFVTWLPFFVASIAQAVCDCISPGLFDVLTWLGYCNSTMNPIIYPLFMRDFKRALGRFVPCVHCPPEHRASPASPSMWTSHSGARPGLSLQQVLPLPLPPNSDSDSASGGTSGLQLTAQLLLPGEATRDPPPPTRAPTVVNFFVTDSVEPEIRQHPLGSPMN

Molecular target: mouse 5-HT6 receptor (Mus musculus, UniProt Q9R1C8)
Details: HEK293 cells, 60 minutes at room temperature, FIG. 4

Structure (SMILES): Cc1[nH]c2ccc(Cl)cc2c1C1=CCNCC1 [Compound A, 5-Chloro-2-methyl-3-(1,2,3,6-tetrahydro-pyridin-4-yl)-1H-indole]
- cAMP production: stimulates cAMP production
